From patent US5773423A (priority 1994, dated 1998)
Values joined by “and” are separate entries in the source; they are usually repeats but may differ in a detail not shown here. Equal entries are not always repeated. Where two headings read alike, the source gives them in different places.

Molecular target: T1, rat A3 receptor (Rattus norvegicus, UniProt P28647)
T1 sequence (P28647 1-320): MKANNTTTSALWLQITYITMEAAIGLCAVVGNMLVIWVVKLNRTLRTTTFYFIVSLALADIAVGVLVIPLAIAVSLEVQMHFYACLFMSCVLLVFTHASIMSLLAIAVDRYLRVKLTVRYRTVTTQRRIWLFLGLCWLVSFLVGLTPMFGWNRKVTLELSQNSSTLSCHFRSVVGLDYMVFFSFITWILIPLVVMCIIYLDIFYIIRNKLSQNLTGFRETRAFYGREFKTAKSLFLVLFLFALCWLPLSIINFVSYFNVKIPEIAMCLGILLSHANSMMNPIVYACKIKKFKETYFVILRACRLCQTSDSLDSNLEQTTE
Assay: biochemical
Format: binding
Conditions: for inhibition at 100 µM: read-out: A3 percent displacement; for IC50: read-out: IC50 at A3 receptors

[1] = CHO cells stably transfected with rat A3 cDNA, [125I]APNEA or [125I]AB-MECA, read-out: A3 affinity Ki
[2] = Table 2, [125I]AB-MECA, CHO/rat A3, read-out: Ki (A3)

In the case of Nc1ccc(CCNc2ncnc3c2ncn3[C@@H]2O[C@H](CO)[C@@H](O)[C@H]2O)cc1I [[^125 I]APNEA, [^125 I]N^6-2-(4-aminophenyl)ethyladenosine], the Kd (read-out: Kd from saturation of binding of [125I]APNEA, CHO/rat A3 membranes, Ki (A3) column of Table 2, footnote g) is reported as 0.0155 µM.

[O-][n+]1cnc2c(ncn2[C@@H]2O[C@H](CO)[C@@H](O)[C@H]2O)c1NCc1ccccc1 [Compound 36, N^6 -benzyladenosine-N^1 -oxide] showed a Ki [1] of 7.25 µM and a Ki (read-out: Ki at A3 receptors) of 7.25 µM.

With CCNC(=O)[C@H]1O[C@@H](n2cnc3c(NCc4cccc(OC)c4)ncnc32)[C@H](O)[C@@H]1O [Compound 66, N^6-(3-methoxybenzyl)-NECA] the Ki [1] was 0.0043 ± 0.0006 µM.

For CNC(=O)[C@H]1O[C@@H](n2cnc3c(NCc4cccc(I)c4)nc(NC)nc32)[C@H](O)[C@@H]1O [Example 45, N^6-(3-iodobenzyl)-2-methylamino-9-[5-(methylamido)-β-D-ribofuranosyl]-adenine], the “selectivity (in words)” value was “highly selective for A3 receptors”, the Ki [2] was 0.00312 µM and 0.003 µM and the A2/A3 (Table 2, ratio of Ki) was 1300.

Molecule OC[C@H]1O[C@@H](n2cnc3c(S)ncnc32)[C@H](O)[C@@H]1O [Compound 89, 6-thiopurine riboside, reference compound] has an inhibition at 100 µM of 41.9 ± 5% and an IC50 of over 100 µM.

Nc1ccc(CCNc2ncnc3c2ncn3[C@@H]2O[C@H](CO)[C@@H](O)[C@H]2O)cc1[125I] [[^125 I]APNEA, [^125 I]N^6-2-(4-aminophenyl)ethyladenosine] gave an A1/A3 (Table 2, ratio of Ki) of 0.14.

In the case of Cn1cnc2c1c(=O)[nH]c(=O)n2C [Compound 106, 3,7-dimethylX], the inhibition at 100 µM (at 100 μM) is reported as 19.9 ± 7.1%.

In the case of COc1nc2c(c(=O)n(C)c(=O)n2C)n1[C@@H]1O[C@H](CO)[C@@H](O)[C@H]1O [Example 59, 8-methoxytheophylline-7-β-D-ribofuranoside], the “selectivity (in words)” value is reported as “slightly selective for A3 receptors”, the A1/A3 (Table 4, ratio of Ki) is reported as over 1 and the A2/A3 (Table 4, ratio of Ki) is reported as over 1.

CCNC(=O)[C@H]1O[C@@H](n2cnc3c(=O)[nH]cnc32)[C@H](O)[C@@H]1O [Compound 91, inosine-5'-N-ethyluronamide] was tested, and the “selectivity (in words)” value was “selective for A3 receptors”.

Molecule Nc1nc(Nc2ccccc2)nc2c1ncn2[C@@H]1O[C@H](CO)[C@@H](O)[C@H]1O [Compound 18, 2-(phenylamino)adenosine] has a Ki [1] of 4.39 µM and a Ki (read-out: Ki at A3 receptors) of 4.4 µM.

Cn1c(=O)c2[nH]c(Cl)nc2n(C)c1=O [Compound 132, 8-chloroT, reference compound] gave an inhibition at 100 µM of 16.8 ± 9.5%.

Work on COc1cc(OC)cc(C(CNc2ncnc3c2ncn3[C@@H]2O[C@H](CO)[C@@H](O)[C@H]2O)c2ccccc2C)c1 (stereo partly drawn) [Compound 10, N^6-[2-(3,5-dimethoxyphenyl)-2-(2-methylphenyl)ethyl]adenosine] yielded a Ki [1] of 3.57 µM and a Ki (read-out: Ki at A3 receptors) of 3.57 µM.

With CCCCCn1c(=O)c2c(ncn2[C@@H]2O[C@H](C(=O)NC)[C@@H](O)[C@H]2O)n(CCCCC)c1=O [Example 68, N-methyl 1,3-di-n-pentylxanthine-7-β-D-ribofuronamide] the A1/A3 was 4.3 and the A2/A3 was over 1.

For CCCCCn1c(=O)c2c(ncn2[C@@H]2O[C@H](CO)[C@@H](O)[C@H]2O)n(CCCCC)c1=O [Example 63, 1,3-di-n-pentylxanthine-7-β-D-ribofuranoside], the A1/A3 was 1.8, the A2/A3 was 9.8 and the “selectivity for A3 over A1 receptors” value was 2 fold. For the same molecule, the “selectivity for A3 over A2 (A2a) receptors” value was 10 fold.

In the case of CCCCn1c(=O)c2c(ncn2[C@@H]2O[C@H](CO)[C@@H](O)[C@H]2O)n(CCCC)c1=S [Example 62, 1,3-di-n-butyl-2-thio-xanthine-7-β-D-ribofuranoside], the “potency increase at A3 vs 1,3-di-n-butylxanthine-7-β-D-ribofuranoside (2-thio vs 2-oxo)” value is reported as 4 fold, the A1/A3 (Table 4, ratio of Ki) is reported as 1.6 and the A2/A3 (Table 4, ratio of Ki) is reported as 3.0.

With CCCn1c(=O)c2[nH]c(-c3ccc(S(=O)(=O)O)cc3)nc2n(CCC)c1=O [Compound 135, 8-sulfophenyl-1,3-dipropylX] the A3 percent displacement (at 100 μM) was 21.9 ± 6.2%.

NC(=O)[C@H]1O[C@@H](n2cnc3c(NCc4ccccc4)ncnc32)[C@H](O)[C@@H]1O [Compound 39, N^6-benzyl-5'-carboxamidoadenosine] was tested, and the Ki [1] was 0.246 ± 0.035 µM.

CN(Cc1ccccc1)c1ncnc2c1ncn2[C@@H]1O[C@H](CO)[C@@H](O)[C@H]1O [Compound 30, N^6 -benzyl-N^6 -methyladenosine, reference compound] gave an inhibition at 100 µM of 78.4 ± 4.6%.

CCCCCC[C@H]([C@H](C)O)n1cnc2c(N)ncnc21 (relative stereo) [Compound 96, erythro-9-(2-hydroxy-3-nonyl)adenine] showed an inhibition at 100 µM (at 100 μM) of 57.5 ± 14.3% and an IC50 of under 100 µM.

In the case of CCNC(=O)[C@H]1O[C@@H](n2cnc3c(NCc4cccc(I)c4)ncnc32)[C@H](O)[C@@H]1O [Compound 60, N^6-(3-iodobenzyl)-NECA], the Ki [1] is reported as 0.00088 ± 0.00021 µM.

With Cc1cn([C@H]2C[C@H](O)[C@@H](CO)O2)c(=O)[nH]c1=O [Compound 83, thymidine, reference compound] the inhibition at 100 µM was 21.3 ± 4.9%.

Molecule CCCCn1c(=O)c2[nH]cnc2n(CCCC)c1=O [Compound 109, 1,3-di-n-butyl-xanthine] has a Ki [1] of 143 µM and a Ki (read-out: Ki at A3 receptors) of 143 µM.

For OC[C@H]1O[C@@H](n2cnc3c(NC4CCCC4)cc(Cl)nc32)[C@H](O)[C@@H]1O [Compound 15, 1-deaza-2-chloro-N^6-cyclopentyladenosine], the “potency relative to 2-chloro-CPA at A3 (in words)” value was “three-fold less potent” and the Ki [1] was 0.77 ± 0.234 µM.

In the case of CCNC(=O)[C@H]1O[C@@H](n2cnc3c(NCc4cccc(C)c4)ncnc32)[C@H](O)[C@@H]1O [Compound 64, N^6-(3-methylbenzyl)-NECA], the Ki [1] is reported as 0.0012 ± 0.0001 µM.

Molecule CNC(=O)[C@H]1O[C@@H](n2cnc3c(=O)[nH]cnc32)[C@H](O)[C@@H]1O [Compound 90, inosine-5'-N-methyluronamide] has a Ki [1] of 6.22 µM.

O=S(=O)(O)c1ccc(Nc2ncnc3c2ncn3[C@@H]2O[C@H](CO)[C@@H](O)[C@H]2O)cc1 [Compound 12, N^6 -p-sulfophenyladenosine] showed a Ki [1] of 0.526 ± 0.142 µM.

Nc1ncnc2c1ncn2[C@@H]1O[C@H](COP(=O)(O)O)[C@@H](O)[C@H]1O [Compound 78, adenosine-5'-monophosphate, reference compound] gave an inhibition at 100 µM of 17.2 ± 6.3% and an IC50 of over 100 µM.

For CCCCC#Cc1nc(N)c2ncn([C@@H]3O[C@H](C(=O)NCC)[C@@H](O)[C@H]3O)c2n1 [drawing 13 (1st)], the Ki [1] was 0.0256 ± 0.0032 µM.

Work on NC[C@H]1O[C@@H](n2cnc3c(N)ncnc32)[C@H](O)[C@@H]1O [Compound 74, 5'-deoxy-5'-aminoadenosine] yielded an inhibition at 100 µM (at 100 μM) of 30.6 ± 2.2% and an IC50 of over 100 µM.

With Nc1[nH]c2ccccc2c2ncnc1-2 [Compound 94, imidazo[4,5-c]quinolin-4-amine] the inhibition at 100 µM (at 100 μM) was 32.6 ± 10.8% and the Ki (read-out: Ki at A3 receptors) was at least 100 µM.

N=C(N)NC(=O)c1nc(Cl)c(N)nc1N [Compound 97, amiloride] was tested, and the Ki (Ki at A3 receptors) was at least 100 µM and the inhibition at 100 µM (at 100 μM) was 22 ± 3.5%.

For NCCNC(=O)[C@H]1O[C@@H](n2cnc3c(N)ncnc32)[C@H](O)[C@@H]1O [Compound 25, 5'-N-aminoethylaminocarboxamidoadenosine], the “selectivity (in words)” value was “A3 -selective” and the Ki (read-out: A3 affinity Ki) was 14.7 µM.

With CNC(=O)[C@H]1O[C@@H](n2cnc3c(NCc4ccccc4)ncnc32)[C@H](O)[C@@H]1O [Compound 40, N^6-benzyladenosine-5'-N-methyluronamide] the “selectivity for A3 over A2 (A2a) receptors” value was 37 fold and the Ki [1] was 0.016 ± 0.001 µM.

Molecule Cn1c(=O)c2c(ncn2CCO)n(C)c1=O [Compound 116, 7-β-hydroxyethylT, reference compound] has an inhibition at 100 µM of 21.1 ± 13.3%.

Molecule O=S(=O)(O)c1ccc(CCCCNc2ncnc3c2ncn3[C@@H]2O[C@H](CO)[C@@H](O)[C@H]2O)cc1 [Compound 14, N^6-4-(p-sulfophenyl)butyl adenosine] has a Ki [1] of 0.808 ± 0.116 µM.

In the case of Nc1nc(NCc2cccc(I)c2)c2ncn([C@@H]3O[C@H](CO)[C@@H](O)[C@H]3O)c2n1 [Example 43, 2-amino-N^6-(3-iodobenzyl)-9-[β-D-ribofuranosyl]-adenine], the A1/A3 is reported as 0.35, the A2/A3 is reported as 0.65 and the “factor less potent than N6-(3-iodobenzyl)-adenosine at A3 receptors” value is reported as 19 factor. It also gave a Ki [2] of 0.181 ± 0.03 µM.

Molecule CO[C@@H]1[C@H](O)[C@@H](CO)O[C@H]1n1cnc2c(N)ncnc21 [Compound 71, 2'-O-methyladenosine, reference compound] has an inhibition at 100 µM (at 100 μM) of 42.9 ± 9.4% and an IC50 of over 100 µM.

Nc1ccn([C@@H]2O[C@H](CO)[C@@H](O)[C@H]2O)c(=O)n1 [Compound 84, cytidine, reference compound] was tested, and the inhibition at 100 µM was 24.5 ± 10.2%.

For CCNC(=O)[C@H]1O[C@@H](n2cnc3c(=N)n(Cc4ccc([N+](=O)[O-])cc4)cnc32)[C@H](O)[C@@H]1O [Compound 37], the Ki [1] was 0.06 ± 0.003 µM.

With Cn1c(=O)c2[nH]c(C3CCCC3)nc2n(C)c1=O [Compound 128, 8-cyclopentylT] the inhibition at 100 µM was 38.7 ± 2.5%.

For O=S(=O)(O)CCNc1ncnc2c1ncn2[C@@H]1O[C@H](CO)[C@@H](O)[C@H]1O [Compound 11, N^6-(2-sulfo)ethyladenosine], the Ki [1] was 32.4 µM and the Ki (read-out: Ki at A3 receptors) was 32.4 µM.

Cn1cnc2c(=O)[nH]c(=O)n(C)c21 [Compound 107, 3,9-dimethylX, reference compound] showed an inhibition at 100 µM of 19 ± 6.8%.

CNC(=O)[C@H]1O[C@@H](n2cnc3c(NCc4ccc(N)cc4)ncnc32)[C@H](O)[C@@H]1O [Compound 50, N^6-(4-aminobenzyl)-NMCA] was tested, and the Ki [1] was 0.014 ± 0.003 µM.

With CCCCn1c(=O)c2c(ncn2[C@@H]2O[C@H](CO)[C@@H](O)[C@H]2O)n(Cc2ccccc2)c1=O [Compound 121, 3-benzyl-1-butylxanthine-7-β-D-ribofuranoside] the Ki [1] was 12.4 µM, the Ki (Table 4, [125I]AB-MECA, CHO/rat A3, read-out: Ki (A3)) was 12.4 µM and the A1/A3 (Table 4, ratio of Ki) was 0.14. For the same molecule, the “potency decrease at A3 vs 1,3-di-n-butylxanthine-7-β-D-ribofuranoside” value (benzyl derivatives) was 2 fold.
